Measurements from patent US20220249404A1 (Nanjing Ruiying Runze Biopharmaceutical Technology Co., Inc., priority 2019, published 2022).

Tested on: C57BL/6 mice of hydroquinone model
Test: melanogenesis in C57BL/6 mice of hydroquinone model (back skin color, HE staining of hair follicles)
Details: hydroquinone model group compared with normal control group

Oc1ccc(O)cc1
melanin in hair follicle: decreased
skin color on the back: decreased significantly
